Data taken from PMC12836348, “Alanine Mutagenesis Identifies Specific Amino Acids of Nemertide Alpha‑1 Activity and Its Binding to Target Receptors” (Journal of Natural Products, 2025).

Amino acid sequences for entries named in this document (tags omitted).
UniProt P08104, whole entry: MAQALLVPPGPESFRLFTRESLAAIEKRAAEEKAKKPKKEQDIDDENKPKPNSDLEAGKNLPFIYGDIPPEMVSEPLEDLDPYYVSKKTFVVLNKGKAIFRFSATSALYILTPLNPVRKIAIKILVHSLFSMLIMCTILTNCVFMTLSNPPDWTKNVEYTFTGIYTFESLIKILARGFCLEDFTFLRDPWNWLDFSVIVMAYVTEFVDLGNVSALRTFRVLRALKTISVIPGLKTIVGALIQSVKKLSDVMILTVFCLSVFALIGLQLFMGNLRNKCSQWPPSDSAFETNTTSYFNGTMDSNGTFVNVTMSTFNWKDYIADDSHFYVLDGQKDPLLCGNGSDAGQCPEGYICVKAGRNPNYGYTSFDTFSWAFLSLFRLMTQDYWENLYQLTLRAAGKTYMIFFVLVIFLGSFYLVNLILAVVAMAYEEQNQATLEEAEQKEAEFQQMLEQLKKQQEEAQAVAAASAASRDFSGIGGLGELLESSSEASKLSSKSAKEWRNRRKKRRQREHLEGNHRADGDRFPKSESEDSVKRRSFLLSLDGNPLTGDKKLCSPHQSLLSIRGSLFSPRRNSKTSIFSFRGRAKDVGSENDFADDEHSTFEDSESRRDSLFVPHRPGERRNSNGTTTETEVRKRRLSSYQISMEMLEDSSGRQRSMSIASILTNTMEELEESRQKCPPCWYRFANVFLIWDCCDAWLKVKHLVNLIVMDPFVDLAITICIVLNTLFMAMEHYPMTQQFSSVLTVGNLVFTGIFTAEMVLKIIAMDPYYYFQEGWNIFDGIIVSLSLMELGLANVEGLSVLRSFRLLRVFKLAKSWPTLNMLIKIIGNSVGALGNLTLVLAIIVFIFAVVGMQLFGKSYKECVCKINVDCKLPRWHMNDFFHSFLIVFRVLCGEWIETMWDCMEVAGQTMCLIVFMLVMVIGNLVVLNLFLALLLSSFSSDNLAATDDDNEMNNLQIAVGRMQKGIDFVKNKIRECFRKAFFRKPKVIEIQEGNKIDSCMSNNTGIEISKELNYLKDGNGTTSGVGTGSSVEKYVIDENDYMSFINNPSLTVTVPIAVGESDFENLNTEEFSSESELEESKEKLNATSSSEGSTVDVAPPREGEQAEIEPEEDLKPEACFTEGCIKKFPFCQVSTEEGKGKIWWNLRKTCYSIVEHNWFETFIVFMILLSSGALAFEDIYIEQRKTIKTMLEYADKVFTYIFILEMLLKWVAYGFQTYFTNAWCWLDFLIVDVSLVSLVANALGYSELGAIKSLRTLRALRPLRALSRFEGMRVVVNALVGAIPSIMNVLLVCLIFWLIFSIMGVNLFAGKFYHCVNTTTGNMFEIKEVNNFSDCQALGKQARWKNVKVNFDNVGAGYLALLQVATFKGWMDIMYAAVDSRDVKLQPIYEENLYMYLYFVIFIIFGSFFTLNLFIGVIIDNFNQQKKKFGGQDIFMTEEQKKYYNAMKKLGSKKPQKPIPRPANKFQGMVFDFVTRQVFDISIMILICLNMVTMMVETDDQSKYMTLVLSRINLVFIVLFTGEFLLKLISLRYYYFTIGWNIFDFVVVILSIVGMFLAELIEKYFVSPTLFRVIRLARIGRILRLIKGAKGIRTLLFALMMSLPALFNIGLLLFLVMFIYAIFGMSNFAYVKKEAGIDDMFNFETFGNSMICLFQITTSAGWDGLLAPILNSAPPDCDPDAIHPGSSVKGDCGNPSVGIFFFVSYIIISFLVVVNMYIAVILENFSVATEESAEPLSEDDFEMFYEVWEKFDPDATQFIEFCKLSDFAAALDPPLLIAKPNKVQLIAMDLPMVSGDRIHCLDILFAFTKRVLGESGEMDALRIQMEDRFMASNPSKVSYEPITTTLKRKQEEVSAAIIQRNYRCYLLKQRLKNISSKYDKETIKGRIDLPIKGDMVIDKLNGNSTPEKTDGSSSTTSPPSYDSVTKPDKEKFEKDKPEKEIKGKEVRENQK
UniProt P04775, whole entry: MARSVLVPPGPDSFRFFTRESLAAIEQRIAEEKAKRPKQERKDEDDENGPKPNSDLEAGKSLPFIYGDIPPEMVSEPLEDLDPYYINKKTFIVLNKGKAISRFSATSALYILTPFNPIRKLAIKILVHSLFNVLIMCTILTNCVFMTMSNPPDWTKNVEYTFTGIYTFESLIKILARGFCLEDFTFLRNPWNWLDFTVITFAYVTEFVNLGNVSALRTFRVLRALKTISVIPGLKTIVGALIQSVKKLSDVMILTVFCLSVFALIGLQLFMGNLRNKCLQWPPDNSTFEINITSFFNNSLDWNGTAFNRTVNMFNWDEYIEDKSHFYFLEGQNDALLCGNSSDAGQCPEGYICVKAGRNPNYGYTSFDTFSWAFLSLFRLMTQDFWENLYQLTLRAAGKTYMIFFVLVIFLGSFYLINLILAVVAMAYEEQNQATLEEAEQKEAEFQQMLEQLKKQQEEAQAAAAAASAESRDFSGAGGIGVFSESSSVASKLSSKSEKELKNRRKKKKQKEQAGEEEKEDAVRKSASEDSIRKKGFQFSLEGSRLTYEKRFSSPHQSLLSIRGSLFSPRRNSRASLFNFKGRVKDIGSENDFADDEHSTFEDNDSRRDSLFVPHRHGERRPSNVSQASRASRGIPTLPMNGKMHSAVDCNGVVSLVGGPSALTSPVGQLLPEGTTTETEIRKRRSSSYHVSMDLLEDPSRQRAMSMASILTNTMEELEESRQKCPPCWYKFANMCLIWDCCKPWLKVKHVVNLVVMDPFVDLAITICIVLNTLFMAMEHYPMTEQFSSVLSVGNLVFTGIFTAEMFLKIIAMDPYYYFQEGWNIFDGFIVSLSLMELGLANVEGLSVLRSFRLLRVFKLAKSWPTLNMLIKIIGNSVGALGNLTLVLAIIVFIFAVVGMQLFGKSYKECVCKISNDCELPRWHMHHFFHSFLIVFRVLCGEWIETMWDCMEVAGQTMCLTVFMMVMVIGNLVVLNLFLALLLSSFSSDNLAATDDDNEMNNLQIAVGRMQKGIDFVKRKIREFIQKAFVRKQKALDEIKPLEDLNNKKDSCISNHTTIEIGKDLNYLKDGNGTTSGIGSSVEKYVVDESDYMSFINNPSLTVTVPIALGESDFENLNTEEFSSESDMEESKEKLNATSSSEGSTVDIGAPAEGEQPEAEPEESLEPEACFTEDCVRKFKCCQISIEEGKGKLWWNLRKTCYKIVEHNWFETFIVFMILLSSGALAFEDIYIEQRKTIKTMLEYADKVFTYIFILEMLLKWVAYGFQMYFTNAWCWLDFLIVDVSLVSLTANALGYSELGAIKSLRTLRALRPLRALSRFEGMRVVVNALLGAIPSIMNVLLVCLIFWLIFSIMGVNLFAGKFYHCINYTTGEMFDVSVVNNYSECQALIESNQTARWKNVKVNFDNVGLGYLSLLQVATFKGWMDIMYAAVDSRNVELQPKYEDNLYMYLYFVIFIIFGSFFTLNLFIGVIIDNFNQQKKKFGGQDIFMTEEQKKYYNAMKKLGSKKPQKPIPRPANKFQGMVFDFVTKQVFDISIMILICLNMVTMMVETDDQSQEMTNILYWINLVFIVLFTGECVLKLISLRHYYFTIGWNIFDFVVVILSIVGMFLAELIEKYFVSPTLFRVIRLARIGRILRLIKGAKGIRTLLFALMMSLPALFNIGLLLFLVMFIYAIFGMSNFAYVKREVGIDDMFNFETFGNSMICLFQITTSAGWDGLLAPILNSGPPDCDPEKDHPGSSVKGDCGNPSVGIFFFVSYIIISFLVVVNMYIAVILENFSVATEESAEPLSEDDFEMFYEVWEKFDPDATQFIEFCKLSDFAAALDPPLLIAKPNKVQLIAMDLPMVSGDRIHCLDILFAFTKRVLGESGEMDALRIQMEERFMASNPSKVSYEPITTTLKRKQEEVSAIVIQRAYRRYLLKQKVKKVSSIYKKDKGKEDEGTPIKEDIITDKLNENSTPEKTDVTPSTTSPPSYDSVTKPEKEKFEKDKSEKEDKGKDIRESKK
UniProt Q15858, whole entry: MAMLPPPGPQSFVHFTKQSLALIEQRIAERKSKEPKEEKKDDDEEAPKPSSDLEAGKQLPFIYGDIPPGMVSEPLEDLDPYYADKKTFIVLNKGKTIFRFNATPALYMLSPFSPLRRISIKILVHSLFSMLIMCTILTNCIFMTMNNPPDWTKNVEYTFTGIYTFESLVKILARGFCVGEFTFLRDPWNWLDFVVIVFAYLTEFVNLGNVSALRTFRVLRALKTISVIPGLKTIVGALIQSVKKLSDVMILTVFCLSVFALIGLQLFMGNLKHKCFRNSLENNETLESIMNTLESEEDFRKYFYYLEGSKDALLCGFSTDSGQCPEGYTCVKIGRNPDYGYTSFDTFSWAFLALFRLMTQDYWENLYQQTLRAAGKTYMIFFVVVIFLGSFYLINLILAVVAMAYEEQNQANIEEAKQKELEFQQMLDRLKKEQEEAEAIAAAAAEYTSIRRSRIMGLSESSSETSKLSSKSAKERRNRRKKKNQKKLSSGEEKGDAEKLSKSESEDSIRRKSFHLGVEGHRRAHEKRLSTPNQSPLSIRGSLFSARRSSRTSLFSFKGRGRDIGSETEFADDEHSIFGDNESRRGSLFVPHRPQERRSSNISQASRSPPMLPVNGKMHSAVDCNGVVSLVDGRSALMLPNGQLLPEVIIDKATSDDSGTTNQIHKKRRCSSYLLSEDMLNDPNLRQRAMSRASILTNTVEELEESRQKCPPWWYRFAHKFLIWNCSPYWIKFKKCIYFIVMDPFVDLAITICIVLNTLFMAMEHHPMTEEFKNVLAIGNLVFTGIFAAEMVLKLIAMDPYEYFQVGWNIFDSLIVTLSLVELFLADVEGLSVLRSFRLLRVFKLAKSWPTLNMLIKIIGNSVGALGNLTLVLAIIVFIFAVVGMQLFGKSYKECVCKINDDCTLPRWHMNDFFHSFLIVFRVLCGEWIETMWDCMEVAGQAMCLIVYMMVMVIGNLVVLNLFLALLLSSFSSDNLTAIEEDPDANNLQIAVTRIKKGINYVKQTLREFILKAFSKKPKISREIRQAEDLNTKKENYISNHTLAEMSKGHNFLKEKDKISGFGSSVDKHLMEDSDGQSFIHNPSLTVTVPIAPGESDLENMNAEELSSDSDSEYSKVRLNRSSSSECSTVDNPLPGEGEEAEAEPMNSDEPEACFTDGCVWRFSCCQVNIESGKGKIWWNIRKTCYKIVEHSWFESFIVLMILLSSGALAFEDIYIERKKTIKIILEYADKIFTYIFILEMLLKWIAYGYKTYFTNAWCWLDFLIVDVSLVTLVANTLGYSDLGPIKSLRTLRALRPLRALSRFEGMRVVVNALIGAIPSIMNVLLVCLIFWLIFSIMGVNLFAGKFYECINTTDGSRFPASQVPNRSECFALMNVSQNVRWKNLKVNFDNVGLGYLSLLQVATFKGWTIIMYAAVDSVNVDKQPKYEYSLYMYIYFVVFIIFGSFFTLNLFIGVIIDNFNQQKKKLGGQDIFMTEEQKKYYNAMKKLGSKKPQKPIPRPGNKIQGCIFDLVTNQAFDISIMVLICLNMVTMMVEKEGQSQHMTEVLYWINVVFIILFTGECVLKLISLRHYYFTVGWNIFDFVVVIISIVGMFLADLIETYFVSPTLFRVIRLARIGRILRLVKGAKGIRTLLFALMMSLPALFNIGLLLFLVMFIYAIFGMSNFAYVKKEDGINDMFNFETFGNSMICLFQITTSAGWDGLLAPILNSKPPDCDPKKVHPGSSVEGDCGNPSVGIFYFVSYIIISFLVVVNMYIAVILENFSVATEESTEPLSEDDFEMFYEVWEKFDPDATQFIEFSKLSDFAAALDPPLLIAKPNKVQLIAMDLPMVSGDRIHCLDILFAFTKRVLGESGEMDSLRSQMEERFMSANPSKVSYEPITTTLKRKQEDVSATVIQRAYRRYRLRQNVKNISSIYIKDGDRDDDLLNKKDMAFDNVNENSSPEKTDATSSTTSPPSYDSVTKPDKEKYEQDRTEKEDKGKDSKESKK

What was measured:
hNaV1.6 = molecular target: T1, hNaV1.6 (Homo sapiens, UniProt Q9UQD0); assay: Two-electrode voltage clamp, Nav1.6 in Xenopus laevis oocytes; format: cell-based; settings: two-electrode voltage clamp in Xenopus laevis oocytes, Hill fit, n ≥ 3; highest tested concentration 50 μM
T1 construct: expressed in transfected cells; host or cells: Xenopus laevis oocytes (cRNA injection)
Protocol: (§1) For the expression of NaV channels (hNav1.1, rNaV1.2, rNaV1.3, rNaV1.4, hNaV1.5, hNaV1.6, hNav1.7, and the insect channel BgNaV1) in Xenopus laevis oocytes, the linearized plasmids were transcribed using the T7 or SP6 mMESSAGE-mMACHINE transcription kit (Ambion, Carlsbad, CA, USA). The harvesting of stage V and VI oocytes from an anaesthetized female X. laevis frog was described previously. , Oocytes were injected with 50 nL of cRNA at a concentration of 1 ng/nL using a microinjector (Drummond Scientific, Broomall, PA, USA). The oocytes were incubated in a solution containing 96 mM NaCl, 2 mM KCl, 1.8 mM CaCl2, 2 mM MgCl2, and 5 mM HEPES (pH 7.4), supplemented with 50 mg/L gentamycin sulfate. Two-electrode voltage-clamp recordings were performed at room temperature (18–22 °C) using a Geneclamp 500 amplifier (Molecular Devices, Downingtown, PA, USA) controlled by a pClamp data acquisition system (Axon Instruments, Union City, CA, USA). Whole-cell currents from oocytes were recorded 1–4 days after injection. The bath solution composition was 96 mM NaCl, 2 mM KCl, 1.8 mM CaCl2, 2 mM MgCl2, and 5 mM HEPES (pH 7.4). Voltage and current electrodes were filled with 3 M KCl. The resistances of both electrodes were kept between 0.8 and 1.5 MΩ. The elicited Nav channel currents were filtered at 1 kHz and sampled at 20 kHz by using a four-pole low-pass Bessel filter. Leak subtraction was performed using a −P/4 protocol. For the electrophysiological analysis of toxins, a series of protocols was applied from a holding potential of −90 mV with a start-to-start interval of 0.2 Hz. Sodium current traces were evoked by 100 ms depolarizations to V max (the voltage corresponding to maximum sodium current in control conditions).
(§2) To assess the concentration–response relationships, data were fitted with the Hill equation: y = 100/[1 + (EC50/[toxin])^ h ], where y is the amplitude of the toxin-induced effect (y = I 30 ms/I peak where I 30 ms is the current value at 30 ms in the presence of toxin and I peak is the peak current amplitude in control conditions), EC50 is the toxin concentration at half-maximal efficacy, [toxin] is the toxin concentration, and h is the Hill coefficient. Potassium and calcium currents were evoked by a 500 ms depolarization to the voltage corresponding to the maximal activation of the channels in control conditions from a holding potential of −90 mV. Elicited currents were sampled at 1 kHz and filtered at 0.5 kHz. For nAChR experiments, the oocytes were clamped at a holding potential of −70 mV and continuously superfused with ND96 via gravity-fed tubes at 0.1–0.2 mL min^–1, with 5 min incubation times for the bath-applied peptides. ACh was applied via gravity-fed tubes until a peak current amplitude was obtained (1–3 s), with 1–2 min washout periods between applications. The nAChR were gated by a particular time duration pulse of ACh for the respective nAChR subtype at 2 mL min^–1. Data were sampled at 500 Hz and filtered at 200 Hz. ASIC1a currents were measured in ND96 solutions at a pH of 7.4 and 4.5, at a holding potential of −70 mV during 400 s, and the data were filtered at 20 Hz. EnaC currents were measured by clamping oocytes at a holding potential of −60 mV and perfusing with low- (1 mM) and high- (96 mM) sodium ND96. Opioid currents were measured by clamping the potential to −70 mV and changing the perfusion solution from ND96 to high-potassium (HK) solution composed of 96 mM KCl, 2 mM NaCl, 1 mM MgCl2, 1.8 mM CaCl2, and 5 mM HEPES, with a final pH of 7.5. The HK-evoked increase in inward K^+ currents represents a “basal” K^+ current (IK, basal). In the presence of HK, 0.2 μM morphine was applied to oocytes and then washed out by HK. TRPV1 and TRPA1 currents were continuously monitored in a perfusing ND96 solution, following a protocol at −90 mV for 400 s. The sampling rate was set at 100 Hz, and the signals were filtered at 20 Hz. One μM capsaicin and 10 μM capsazepine were used for TRPV1. […]

rNaV1.4 = molecular target: T2, rNaV1.4 (Rattus norvegicus, UniProt P15390); assay: Two-electrode voltage clamp, Nav1.4 in Xenopus laevis oocytes; format: cell-based; settings: ex vivo, Hill fit, n ≥ 3, highest tested concentration 50 μM
T2 construct: expressed in transfected cells; host or cells: Xenopus laevis oocytes (cRNA injection)

BgNav1 = assay: Two-electrode voltage clamp, BgNav1 expressed in Xenopus laevis oocytes; format: cell-based, Blattella germanica; settings: ex vivo, I30ms/Ipeak, Hill fit, n ≥ 3, highest tested concentration 50 μM
rNaV1.3 = molecular target: T3, rNaV1.3 (Rattus norvegicus, UniProt P08104); assay: Two-electrode voltage clamp, Nav1.3 in Xenopus laevis oocytes; format: cell-based; settings: ex vivo, Hill fit, n ≥ 3, highest tested concentration 50 μM
T3 construct: expressed in transfected cells; host or cells: Xenopus laevis oocytes (cRNA injection)

rNaV1.2 = molecular target: T4, rNaV1.2 (Rattus norvegicus, UniProt P04775); assay: Two-electrode voltage clamp, Nav1.2 in Xenopus laevis oocytes; format: cell-based; settings: Hill fit, n ≥ 3, highest tested concentration 50 μM
T4 construct: expressed in transfected cells; host or cells: Xenopus laevis oocytes (cRNA injection)

hNav1.7 = molecular target: T5, hNav1.7 (Homo sapiens, UniProt Q15858); assay: Two-electrode voltage clamp, Nav1.7 in Xenopus laevis oocytes; format: cell-based; settings: alpha-1 EC50 75.6 ± 33.9 nM
T5 construct: expressed in transfected cells; host or cells: Xenopus laevis oocytes (cRNA injection)

hNaV1.5 = molecular target: T6, hNaV1.5 (Homo sapiens, UniProt Q14524); assay: Two-electrode voltage clamp, Nav1.5 in Xenopus laevis oocytes; format: cell-based; settings: ex vivo, two-electrode voltage clamp in Xenopus laevis oocytes, Hill fit, n ≥ 3; highest tested concentration 50 μM
T6 construct: expressed in transfected cells; host or cells: Xenopus laevis oocytes (cRNA injection)
Protocol: as §1, §2

Row | Compound | EC50 Nav1.6 (hNaV1.6) | EC50 Nav1.4 (rNaV1.4) | EC50 (BgNav1) | EC50 Nav1.3 (rNaV1.3) | EC50 Nav1.2 (rNaV1.2) | times lower activity on Nav1.7 than alpha-1 (hNav1.7) | EC50 Nav1.5 (hNaV1.5)
1 | CC[C@H](C)[C@@H]1NC(=O)[C@@H](NC(=O)CN)CSSC[C@@H]2NC(=O)[C@@H]3CSSC[C@@H](C(=O)N[C@@H](CC(N)=O)C(=O)N4C[C@H](O)C[C@H]4C(=O)N4C[C@H](O)C[C@H]4C(=O)N[C@@H](CC(N)=O)C(=O)N[C@@H](CCC(N)=O)C(=O)O)NC(=O)[C@H](CCCCN)NC(=O)[C@H](Cc4ccccc4)NC(=O)[C@H](CC(N)=O)NC(=O)[C@H](Cc4c[nH]c5ccccc45)NC(=O)CNC(=O)[C@H](CSSC[C@H](NC(=O)[C@H](Cc4ccccc4)NC(=O)[C@H](CO)NC(=O)CNC(=O)[C@H]([C@@H](C)O)NC(=O)[C@H](C)NC1=O)C(=O)N[C@@H]([C@@H](C)O)C(=O)N[C@@H](CC(C)C)C(=O)N[C@@H](CO)C(=O)N[C@@H](CCCCN)C(=O)NCC(=O)N3)NC(=O)[C@H](C)NC(=O)[C@H](CCCCN)NC(=O)[C@H]([C@@H](C)O)NC2=O [Peptide N19A] | inactive at the tested concentration | no detectable activity | 19.2 ± 7.3 nM | no detectable activity | – | – | –
2 | CC[C@H](C)[C@@H]1NC(=O)[C@@H](NC(=O)CN)CSSC[C@@H]2NC(=O)[C@@H]3CSSC[C@@H](C(=O)N[C@@H](C)C(=O)N4C[C@H](O)C[C@H]4C(=O)N4C[C@H](O)C[C@H]4C(=O)N[C@@H](CC(N)=O)C(=O)N[C@@H](CCC(N)=O)C(=O)O)NC(=O)[C@H](CCCCN)NC(=O)[C@H](Cc4ccccc4)NC(=O)[C@H](CC(N)=O)NC(=O)[C@H](Cc4c[nH]c5ccccc45)NC(=O)CNC(=O)[C@H](CSSC[C@H](NC(=O)[C@H](Cc4ccccc4)NC(=O)[C@H](CO)NC(=O)CNC(=O)[C@H]([C@@H](C)O)NC(=O)[C@H](C)NC1=O)C(=O)N[C@@H]([C@@H](C)O)C(=O)N[C@@H](CC(C)C)C(=O)N[C@@H](CO)C(=O)N[C@@H](CCCCN)C(=O)NCC(=O)N3)NC(=O)[C@H](CC(N)=O)NC(=O)[C@H](CCCCN)NC(=O)[C@H]([C@@H](C)O)NC2=O [Peptide N27A] | slightly higher activity | – | 48.3 ± 2.8 nM | – | activity in the same range as alpha-1 | lower activity by an order of magnitude | –
3 | CC[C@H](C)[C@@H]1NC(=O)[C@@H](NC(=O)CN)CSSC[C@@H]2NC(=O)[C@@H]3CSSC[C@@H](C(=O)N[C@@H](CC(N)=O)C(=O)N4C[C@H](O)C[C@H]4C(=O)N4C[C@H](O)C[C@H]4C(=O)N[C@@H](C)C(=O)N[C@@H](CCC(N)=O)C(=O)O)NC(=O)[C@H](CCCCN)NC(=O)[C@H](Cc4ccccc4)NC(=O)[C@H](CC(N)=O)NC(=O)[C@H](Cc4c[nH]c5ccccc45)NC(=O)CNC(=O)[C@H](CSSC[C@H](NC(=O)[C@H](Cc4ccccc4)NC(=O)[C@H](CO)NC(=O)CNC(=O)[C@H]([C@@H](C)O)NC(=O)[C@H](C)NC1=O)C(=O)N[C@@H]([C@@H](C)O)C(=O)N[C@@H](CC(C)C)C(=O)N[C@@H](CO)C(=O)N[C@@H](CCCCN)C(=O)NCC(=O)N3)NC(=O)[C@H](CC(N)=O)NC(=O)[C@H](CCCCN)NC(=O)[C@H]([C@@H](C)O)NC2=O [Peptide N30A] | – | – | 138 ± 6.2 nM | – | – | lower activity by an order of magnitude | in the same range as alpha-1
4 | CC[C@H](C)[C@@H]1NC(=O)[C@@H](NC(=O)CN)CSSC[C@@H]2NC(=O)[C@@H]3CSSC[C@@H](C(=O)N[C@@H](CC(N)=O)C(=O)N4C[C@H](O)C[C@H]4C(=O)N4C[C@H](O)C[C@H]4C(=O)N[C@@H](CC(N)=O)C(=O)N[C@@H](CCC(N)=O)C(=O)O)NC(=O)[C@H](CCCCN)NC(=O)[C@H](Cc4ccccc4)NC(=O)[C@H](CC(N)=O)NC(=O)[C@H](Cc4c[nH]c5ccccc45)NC(=O)CNC(=O)[C@H](CSSC[C@H](NC(=O)[C@H](Cc4ccccc4)NC(=O)[C@H](CO)NC(=O)CNC(=O)[C@H](C)NC(=O)[C@H](C)NC1=O)C(=O)N[C@@H]([C@@H](C)O)C(=O)N[C@@H](CC(C)C)C(=O)N[C@@H](CO)C(=O)N[C@@H](CCCCN)C(=O)NCC(=O)N3)NC(=O)[C@H](CC(N)=O)NC(=O)[C@H](CCCCN)NC(=O)[C@H]([C@@H](C)O)NC2=O [Peptide T5A] | slightly higher activity | – | 45.6 ± 3.7 nM | – | activity in the same range as alpha-1 | – | in the same range as alpha-1
5 | CC[C@H](C)[C@@H]1NC(=O)[C@@H](NC(=O)CN)CSSC[C@@H]2NC(=O)[C@@H]3CSSC[C@@H](C(=O)N[C@@H](CC(N)=O)C(=O)N4C[C@H](O)C[C@H]4C(=O)N4C[C@H](O)C[C@H]4C(=O)N[C@@H](CC(N)=O)C(=O)N[C@@H](CCC(N)=O)C(=O)O)NC(=O)[C@H](CCCCN)NC(=O)[C@H](Cc4ccccc4)NC(=O)[C@H](CC(N)=O)NC(=O)[C@H](C)NC(=O)CNC(=O)[C@H](CSSC[C@H](NC(=O)[C@H](Cc4ccccc4)NC(=O)[C@H](CO)NC(=O)CNC(=O)[C@H]([C@@H](C)O)NC(=O)[C@H](C)NC1=O)C(=O)N[C@@H]([C@@H](C)O)C(=O)N[C@@H](CC(C)C)C(=O)N[C@@H](CO)C(=O)N[C@@H](CCCCN)C(=O)NCC(=O)N3)NC(=O)[C@H](CC(N)=O)NC(=O)[C@H](CCCCN)NC(=O)[C@H]([C@@H](C)O)NC2=O [Peptide W22A] | inactive at the tested concentration | no detectable activity | 2000 ± 188 nM | no detectable activity | No activity | – | no detectable activity; also recorded: inactive at the tested concentration

“Also recorded” adds a separate entry of the source.
